Earlier results as cited in paper PMC7456046.
Read-outs that look alike come from different tables or passages of the source.

Columns and labels:
[1] = target: calcineurin alpha (Homo sapiens) (UniProt Q08209); experiment: stopped-flow fluorescence
[2] = target: calcineurin beta CaM binding region (Homo sapiens) (UniProt P16298)
[3] = target: calcineurin alpha (Homo sapiens) (UniProt Q08209)

Kd [1]: 0.026 nM
Kd [2]: 0.001 nM
Kd [3]: 16 nM
Substance: calmodulin (from UniProt P0DP23)
